Experimental data reported in patent publication US10669272B2, “Substituted naphthyridinone compounds useful as T cell activators” (BRISTOL-MYERS SQUIBB COMPANY, priority 2018, dated 2020).

By UniProt entry, the sequences of proteins in these tests, tags left out. Chains listed by the source or under a name are the forms on record and can include a tag or linker. Residues count along the entry.
UniProt P23743, 1-735 with tags or gaps: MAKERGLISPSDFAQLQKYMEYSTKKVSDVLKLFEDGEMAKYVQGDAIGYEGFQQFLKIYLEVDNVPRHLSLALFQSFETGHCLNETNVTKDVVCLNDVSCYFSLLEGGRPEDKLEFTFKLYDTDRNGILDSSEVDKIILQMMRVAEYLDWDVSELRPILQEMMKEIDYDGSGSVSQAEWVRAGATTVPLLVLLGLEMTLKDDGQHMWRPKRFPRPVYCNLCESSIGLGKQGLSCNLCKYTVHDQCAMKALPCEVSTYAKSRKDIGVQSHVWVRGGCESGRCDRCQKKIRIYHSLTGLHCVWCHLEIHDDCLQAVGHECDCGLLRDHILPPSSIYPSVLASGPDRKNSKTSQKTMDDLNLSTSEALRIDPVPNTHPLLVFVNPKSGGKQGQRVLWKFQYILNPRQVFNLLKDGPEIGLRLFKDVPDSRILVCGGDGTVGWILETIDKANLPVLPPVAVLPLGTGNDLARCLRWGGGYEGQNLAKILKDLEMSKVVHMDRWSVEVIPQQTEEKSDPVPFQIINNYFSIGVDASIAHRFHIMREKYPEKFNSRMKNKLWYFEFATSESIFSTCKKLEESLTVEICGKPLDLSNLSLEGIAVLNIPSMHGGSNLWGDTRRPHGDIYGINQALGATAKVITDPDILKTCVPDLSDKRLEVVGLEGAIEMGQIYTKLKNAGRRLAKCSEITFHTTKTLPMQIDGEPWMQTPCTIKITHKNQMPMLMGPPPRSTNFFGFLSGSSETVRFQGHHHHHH
UniProt Q13574, 1-929 with tags or gaps isoform 4: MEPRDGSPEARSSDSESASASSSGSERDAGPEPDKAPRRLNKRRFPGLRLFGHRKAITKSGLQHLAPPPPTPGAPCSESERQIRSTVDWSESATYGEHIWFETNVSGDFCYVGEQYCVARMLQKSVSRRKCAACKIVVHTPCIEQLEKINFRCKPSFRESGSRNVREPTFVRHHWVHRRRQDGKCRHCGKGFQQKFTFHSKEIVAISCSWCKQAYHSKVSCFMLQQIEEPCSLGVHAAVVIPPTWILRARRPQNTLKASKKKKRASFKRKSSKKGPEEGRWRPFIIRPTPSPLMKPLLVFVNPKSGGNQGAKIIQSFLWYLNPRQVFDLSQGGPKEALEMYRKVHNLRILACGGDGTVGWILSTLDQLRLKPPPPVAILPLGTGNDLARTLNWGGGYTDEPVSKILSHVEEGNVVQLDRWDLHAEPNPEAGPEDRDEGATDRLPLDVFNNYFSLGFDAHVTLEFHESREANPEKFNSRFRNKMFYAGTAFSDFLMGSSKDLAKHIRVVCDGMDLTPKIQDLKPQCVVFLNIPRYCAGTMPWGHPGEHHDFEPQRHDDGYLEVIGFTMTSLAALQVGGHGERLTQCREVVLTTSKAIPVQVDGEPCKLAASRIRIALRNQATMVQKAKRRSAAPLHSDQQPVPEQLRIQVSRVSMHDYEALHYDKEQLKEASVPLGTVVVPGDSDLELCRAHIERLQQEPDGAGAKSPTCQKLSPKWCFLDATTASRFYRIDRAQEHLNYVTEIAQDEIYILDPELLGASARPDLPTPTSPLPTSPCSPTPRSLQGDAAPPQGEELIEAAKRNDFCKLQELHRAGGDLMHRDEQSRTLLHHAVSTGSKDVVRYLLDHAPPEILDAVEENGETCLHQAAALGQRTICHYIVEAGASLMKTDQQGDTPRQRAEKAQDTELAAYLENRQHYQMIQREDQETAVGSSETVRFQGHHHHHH

Tests used:
human DGKα = human DGKα (Homo sapiens, UniProt P23743); assay: DGKα LIPGLO assay (extruded liposome substrate), in vitro DGK inhibition; conditions: read-out: DGKa LIPGLO IC50
human DGKζ = human DGKζ (Homo sapiens, UniProt Q13574); assay: DGKζ LIPGLO assay (extruded liposome substrate), in vitro DGK inhibition; conditions: read-out: DGKz LIPGLO IC50
Human venous whole blood = assay: Human whole blood IFN-γ assay; type: cell-based; conditions: read-out: INFg Whole Blood Normalized Agonist EC50, normalized to 3 μM reference compound with anti-CD3 plus anti-CD28 as 100% activation;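 further: blood from healthy donors exposed to compound for 1 h before stimulation with anti-CD3 and anti-CD28 at 1 µg/mL each, IFN-γ quantified in supernatant by AlphaLISA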

Row | SMILES | IC50 (human DGKα) [µM] | IC50 (human DGKζ) [µM] | EC50 (Human venous whole blood) [µM]
1 | COc1cc(F)c(C(C)N2C[C@H](C)N(c3cc(=O)n(C)c4ccc(C#N)nc34)C[C@H]2C)c(F)c1 (stereo partly drawn) [Example 1242] | 2.7 | 0.25 | 3.8
2 | COc1cc(F)c(C(C)N2C[C@H](C)N(c3cc(=O)n(C)c4ccc(C#N)nc34)C[C@H]2C)cc1F (stereo partly drawn) [Example 1244] | 4.1 | 1.4 | 4.9
